# Screening results as filed in PubChem BioAssay.
# A selection: hits, their analogues and other compounds. The true share with any hit is near 13%.
# ALDH1A1 inh: ALDH1A1 (human) enzyme inhibition; Purified ALDH1A1, NADH fluorescence, propionaldehyde substrate; Potency, µM (titrated, usually from 75.3 µM), for inactives: top-dose activity, negative = inhibition, most hits filed as inhibitors; 7.3% of 220,000 active; AID 1030; active means well fitted inhibition curve with a large enough effect, not every such curve was filed as active; inconclusive means small, poorly fitted or top-dose-only effect, or another doubt; inactive means no such curve, though single readings can be large or run the other way;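 further: potency means the concentration at half of the fitted maximal effect; plate controls were no enzyme wells and a reference inhibitor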
# Sfp PPTase inh: inhibitors of Bacillus subtilis Sfp phosphopantetheinyl transferase | Q9F4F7 | Biochemical Sfp PPTase activity, qHTS | Potency, µM, inactives show max response, negative = inhibition, most hits filed as inhibitors | 310,000 tested, 3.5% active | AID 1490; active = well fitted inhibition curve with a large enough effect; inconclusive = small, poorly fitted or top-dose-only effect, or another doubt; inactive = no such curve, though single readings can be large or run the other way;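 note: the enzyme is Sfp with the accession as filed and its product quenches rhodamine fluorescence; potency is the fitted concentration of half-maximal effect; 0% = enzyme reaction without inhibitor and -100% = no enzyme wells; top concentration of the series not given in the record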
#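 Sfp 15 nM + cpd, 15 min RT; start w/ rhodamine-CoA 5 uM, BHQ-2-YbbR 12.5 uM (final); 50 mM Hepes pH 7.6, 10 mM MgCl2, 0.01% NP-40, 0.01% BSA; read 525/598 nm at 0 and 30 min.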
# G9a block: blocks human histone lysine methyltransferase G9a; G9a H3K9 monomethylation, AlphaScreen, 2 h; 8.8% of 350,000 active; Potency, µM (top dose mostly 102 µM), for inactives: at the highest dose activity, negative = inhibition, usual class: inhibitors; Q96KQ7; further: potency means the concentration at half of the fitted maximal effect; on the % scale 0 is the no-effect control and ±100 the full control effect; nearly all actives have a fitted effect of over 75% in size
#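 Chemiluminescent proximity detection of H3K9 monomethylation, read after 10 min bead incubation in the dark. Reaction: 20 nM G9a, 500 nM biotin-H3K9 peptide, 20 uM SAM cofactor, 2 h, room temperature, following 15 min enzyme-compound preincubation.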
# LMNA splice mod: LMNA splicing modulation. HeLa LMNA splicing GFP/RFP minigene ratio, 48 h. Potency, µM (series often up to 46.1 µM), inactives show at the top dose ratio change, negative = inhibition, hits mostly inhibitors. 0.01% of 200,000 active. AID 1487; active means well fitted inhibition curve with a large enough effect in the signal ratio, with a control signal flat, not every such curve was filed as active; inconclusive means small, poorly fitted or top-dose-only effect, or effect the other way, or a change in a side signal; the % refers to the signal ratio; further: potency means the concentration at half of the fitted maximal effect; on the % scale 0 is the no-effect control and ±100 the full control effect
#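 Read-out is the ratio of GFP to DsRed2 object intensity, acquired by 488 nm laser-scanning cytometry on HeLa lamin A-EGFP minigene reporter cells. Compound incubation 48 hrs at 37 °C in Opti-MEM with 2% FBS; DMSO 0.5% final.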
# miR-21 reporter: miR-21 reporter, rising signal; HeLa miR-21 FLuc reporter, luciferase, 48 h; Potency, µM (top dose mostly 38.3 µM), without a hit: at the top dose reporter change, positive = more light; 340,000 tested, under 10 active; active = well fitted rising curve with a large enough effect; inconclusive = small, poorly fitted or top-dose-only effect; inactive = no such curve, though single readings can be large or run the other way;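 note: % of control where 0% means no effect; miR-21 action dims this reporter so a rising signal means less miR-21 action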
#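 Compounds were titrated across several concentrations (up to approximately 40 uM) and incubated 48 hours with HeLa miR-21-FLuc reporter cells (miR-21 target sequence downstream of FLuc, endogenous miR-21). Readout was firefly luciferase luminescence after lytic detection reagent.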
# JMJD2E inh: inhibitors of human JMJD2E histone demethylase; B2RXH2; 1.6% of 230,000 active; JMJD2E catalytic domain, FDH-coupled NADH fluorescence (FDH is formaldehyde dehydrogenase); Potency, µM (series often up to 57.1 µM), for inactives: at the top dose activity change, negative = inhibition, most hits filed as inhibitors; AID 2147; active means well fitted inhibition curve with a large enough effect, not every such curve was filed as active; inconclusive means small, poorly fitted or top-dose-only effect, or another doubt; inactive means no such curve, though single readings can be large or run the other way;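 further: potency means the concentration at half of the fitted maximal effect; 0% = wells with enzyme and -100% = buffer wells without enzyme; nearly all actives have a fitted effect of over 50% in size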
# An asterisk follows results filed as active; ? = inconclusive; / = no result; [ ] = remark or other dose. Unless noted, the call rests on the fitted dose curve; in most records, active means well fitted curve in the direction sought with a large enough effect; inconclusive means small, poorly fitted or top-dose-only effect, or another doubt; inactive means no such curve, though single readings can be large; an effect the other way counts as inactive or inconclusive.
entry	molecule	ALDH1A1 inh	Sfp PPTase inh	G9a block	LMNA splice mod	miR-21 reporter	JMJD2E inh
1	O=C(CN1CCCc2ccccc21)N/N=C/c1ccccc1	?	15.7%	44.7µM*	-7.1%	-33.4%	-24.8%
2	O=C(CN1CCCc2ccccc21)N/N=C/c1c(O)ccc2ccccc12	-1.4%	6.4%	39.8µM*	?	-0.2%	?
3	NS(=O)(=O)c1ccc(NC(=O)CN2CCCc3ccccc32)cc1	/	12.4%	28.2µM*	/	0.1%	-3.3%
4	Cc1ccccc1NC(=O)c1ccc(NC(=O)C2CCCO2)cc1 (stereo not given)	/	14.7%	14.4%	/	-11.2%	/
5	CCCC/C=C/[C@H](C)[C@@](C)(COC(=O)c1ccc(Br)cc1)Cc1ccccc1	/	-3.3%	/	/	/	/
6	O=C(C1CCN(S(=O)(=O)c2cccc3nonc23)CC1)N1CCN(c2ccc(F)cc2)CC1	/	/	-32.5%[59 µM]	/	12.7%	/
7	CCN(CC)c1ccc(/C=N/NC(=O)CC(C)C)cc1	?	-4.5%	/	26.2%[46 µM]	-25.4%	?
8	CCN(CC)c1ccc(/C=N/NC(=O)CN2CCCc3ccccc32)cc1	?	-10.7%	25.1µM*	-0.3%	-8.0%	?
9	CCN(CC)c1ccc(/C=N/OCC(=O)N2CCCc3ccccc32)cc1	-8.7%	-22.7%	39.8µM*	?	-5.7%	?
10	Cc1nc(SCC(=O)N(CC(C)C)C2CCS(=O)(=O)C2)c(C#N)c(C)c1C (stereo not given)	/	/	50.1µM*	/	/	/
11	CCN(C(=O)CSc1nnc(SC(C)C)s1)C1CCS(=O)(=O)C1 (stereo not given)	/	/	2.2%[59 µM]	/	/	/
12	CC(C)CN(C(=O)CSc1nn(-c2ccc(Cl)cc2)c(=S)s1)C1CCS(=O)(=O)C1 (stereo not given)	?	5.7%	20µM*	-8.4%	0.2%	-3.9%
13	CC(C)CN(C(=O)CSc1nnc2ccccn12)C1CCS(=O)(=O)C1 (stereo not given)	/	/	11.0%[2.33 µM]	/	/	/
14	CCN(CC)S(=O)(=O)c1ccc2c(c1)oc(=O)n2CC(=O)NC1CCCCC1	/	11.3%	10.2%	/	-3.1%	/
15	CC(C)c1ccc2occ(CC(=O)Nc3cccc(C(F)(F)F)c3)c2c1	/	/	25.5%[59 µM]	/	?	/
16	O=C(C1CCCN(Cc2cccs2)C1)N1CCCCCC1 (stereo not given)	-15.6%	-15.4%	8.91µM*	4.1%	-2.6%	-8.8%
17	CCOC(=O)C1CCCN(Cc2cccs2)C1 (stereo not given)	?	?	?	20.6%	-5.1%	?
18	O=C(C1CCCN(Cc2ccccc2F)C1)N1CCCCC1 (stereo not given)	/	-4.3%	10µM*	/	-2.8%	/
19	O=C(C1CCCN(Cc2ccccc2C(F)(F)F)C1)N1CCCCC1 (stereo not given)	-7.8%	-9.7%	5.01µM*	3.8%	-1.8%	?
20	Fc1ccccc1CN1CCCCCCC1	14.1µM*	56.2µM*	-49.9%[12.7 µM]	22.9%	-0.1%	-2.9%
21	Cc1cc(Br)c(NC(=O)CN2CCCC2)c(Br)c1	/	13.3%	-5.0%	/	-29.2%	/
22	Cc1nn(C(=O)c2ccc(Cl)cc2)c(C)c1S(=O)(=O)N1CCOCC1	/	/	-43.7%[59 µM]	-12.2%[46 µM]	-0.1%	/
23	CC(C)OP(=O)(OC(C)C)C1(NS(=O)(=O)c2ccc(Cl)cc2)C=C(Cl)C(=O)C(Cl)=C1	/	89.1µM*	/	/	5.9%	/
24	CC(C)N(CCNS(=O)(=O)c1ccc(Cl)cc1)C(C)C	?	-9.9%	-2.7%[59 µM]	0.6%	-0.6%	4.5%
25	O=C(NCc1ccccn1)c1ccc(Cl)c(S(=O)(=O)Nc2ccccc2C(=O)NCc2ccccn2)c1	0.4%	-14.7%	50.1µM*	-14.2%	-8.6%	-3.6%
26	O=C(NCc1ccccn1)c1cccc(NS(=O)(=O)c2cccc(F)c2)c1	14.1µM*	-5.7%	0.5%	2.2%	0.9%	4.2%
27	O=C(NCc1cccnc1)c1ccc(Cl)c(S(=O)(=O)Nc2ccccc2C(=O)NCc2cccnc2)c1	1.2%	10.8%	44.7µM*	-0.6%[46 µM]	-2.0%	-26.8%
28	Cc1cc(C)cc(NS(=O)(=O)c2cc(C(=O)NCc3ccccn3)ccc2Cl)c1	9.2%	3.9%	45.3%[59 µM]	1.8%	-2.4%	-4.1%
